Read-outs that look alike come from different tables or passages of the source.
Key:
sigma1 receptor [1] = target: T1, sigma1 receptor (Mus musculus, UniProt O55242)
sigma1 receptor [2] = target: T1, sigma1 receptor; details: 1.0 nM [3H](+)-pentazocine; 6 h; 37 °C; mouse lung membranes
sigma1 receptor [3] = target: T1, sigma1 receptor; test: biochemical

Chains of the proteins cited; added tags and fusions are not shown.
UniProt O55242, whole entry: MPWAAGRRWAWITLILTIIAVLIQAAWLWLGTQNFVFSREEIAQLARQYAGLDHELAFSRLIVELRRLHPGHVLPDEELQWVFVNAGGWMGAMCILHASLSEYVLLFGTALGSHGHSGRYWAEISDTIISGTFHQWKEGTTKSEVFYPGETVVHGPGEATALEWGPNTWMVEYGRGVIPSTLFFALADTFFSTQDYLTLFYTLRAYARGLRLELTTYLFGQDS

Structure (SMILES)	specific radioligand binding as share of total binding (sigma1 receptor [1]; 0.7 nM, 6 – 8 h, 1.0 µM haloperidol non-specific)	time to steady state of specific binding (sigma1 receptor [1]; 37 °C, 0.7 nM)	time to steady state of specific binding (sigma1 receptor [1]; 37 °C, 3.0 nM)	Bmax, saturation binding, first set (sigma1 receptor [1]; 6 h, 37 °C, n = 4, mean ± S.E.M.)	Bmax, saturation binding, pooled data (sigma1 receptor [1]; 6 h, 37 °C, n = 8)	Kd (sigma1 receptor [1]; read-out: Kd, saturation binding, pooled data, 6 h, 37 °C, n = 8)	Sigma1 nH (pseudo-Hill slope) (sigma1 receptor [2])	Ki (sigma1 receptor [3])
CC(C)=CCN1CC[C@]2(C)c3cc(O)ccc3C[C@H]1[C@H]2C [[^3H](+)-pentazocine]	87%	≤ 6 h	≤ 5 h	951 ± 18 fmol / mg protein	967 ± 11 fmol / mg protein	1.36 ± 0.04 nM	–	–
CC(C)=CCN1CC[C@]2(C)c3cc(O)ccc3C[C@H]1[C@H]2C [(+)-Pentazocine, (+)-pentazocine]	–	–	–	–	–	–	1.07 ± 0.13	1.3 ± 0.05 nM

Reference: PMC4543428 (European journal of pharmacology, 2015)
